These results are taken from US20040106773A1 (priority 2003, published 2004).

Chains of the proteins cited; added tags and fusions are not shown. Residues count along the entry.
UniProt P49190, 25-550: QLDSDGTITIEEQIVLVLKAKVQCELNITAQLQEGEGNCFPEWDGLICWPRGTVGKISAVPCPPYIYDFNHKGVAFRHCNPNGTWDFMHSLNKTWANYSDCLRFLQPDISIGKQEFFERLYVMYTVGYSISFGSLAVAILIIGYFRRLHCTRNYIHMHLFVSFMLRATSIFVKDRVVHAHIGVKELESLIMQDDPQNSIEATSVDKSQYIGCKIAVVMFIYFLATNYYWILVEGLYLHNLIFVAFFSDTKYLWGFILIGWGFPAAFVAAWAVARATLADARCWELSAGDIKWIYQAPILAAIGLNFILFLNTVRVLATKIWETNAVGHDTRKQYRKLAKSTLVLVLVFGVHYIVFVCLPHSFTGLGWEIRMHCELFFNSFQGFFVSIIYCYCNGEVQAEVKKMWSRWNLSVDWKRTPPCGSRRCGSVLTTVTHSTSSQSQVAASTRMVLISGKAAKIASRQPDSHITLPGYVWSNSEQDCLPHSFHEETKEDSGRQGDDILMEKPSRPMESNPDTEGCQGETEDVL
UniProt P70555, 25-546: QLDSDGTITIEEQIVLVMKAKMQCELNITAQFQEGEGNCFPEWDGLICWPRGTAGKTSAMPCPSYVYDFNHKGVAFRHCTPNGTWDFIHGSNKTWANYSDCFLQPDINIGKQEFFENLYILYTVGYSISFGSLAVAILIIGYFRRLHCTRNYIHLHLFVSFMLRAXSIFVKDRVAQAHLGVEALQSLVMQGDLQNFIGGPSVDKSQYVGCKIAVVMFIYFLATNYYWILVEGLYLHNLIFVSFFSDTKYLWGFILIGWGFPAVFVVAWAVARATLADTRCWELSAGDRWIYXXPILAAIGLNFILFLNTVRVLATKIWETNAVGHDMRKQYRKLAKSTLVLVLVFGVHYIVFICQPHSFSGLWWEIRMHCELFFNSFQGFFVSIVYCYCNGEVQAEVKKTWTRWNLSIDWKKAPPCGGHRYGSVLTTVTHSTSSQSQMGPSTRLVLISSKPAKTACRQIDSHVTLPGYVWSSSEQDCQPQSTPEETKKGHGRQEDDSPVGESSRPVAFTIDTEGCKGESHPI

Format in all cases: cell-based
Assay [1] concerns the target T1, human PTH2R (Homo sapiens, UniProt P49190).
T1 construct: expressed in transfected cells
Nature of the assay: cAMP SPA assay for PTH2R activation, human PTH2R. The conditions noted are these: HEK293 cells that expressed human PTH2R; mean±S.D., n=4-7; read-out: logEC50, increase in cAMP (converted). An excerpt: (§1) HEK293 cells were transfected with rat and human PTH2R and cell lines that stably express the receptors were established and evaluated. One cell line was selected for each rat and human PTH2R and used for all the functional assays. Specifically, HEK293 cells were transfected with pCDNA3.1/V5-His-RatPTH2R plasmid DNA and pCDNA3.1-E/Uni-lacZ-HumanPTH2R plasmid DNA using FuGENE 6 transfection reagent (Roche Molecular Biochemicals). Three days after transfection, cells were put under selection with 800 μg/ml geneticin (G418, Gibco BRL). After three weeks of selection, single colonies were cloned using cloning cylinders. Cloned colonies were scaled up to T25 flasks. More than 10 cell lines for each plasmid were tested for function in the cAMP SPA assay.
(§2) HEK293PTH2R cells were seeded in a 96-well poly-D-lysine coated plate at 100,000 cells per well and cultured overnight. After washing with 200 μl of PBS and treating with 100 μl of 300 nM IBMX in assay medium (MEM without phenol red and FBS) at 37° C. for 10 min. The assay medium was then aspirated and the cells were washed with PBS. The cellular of cAMP was measured using cAMP SPA Direct Screening (Amersham/Pharmacia RPA559). Each concentration of ligand was repeated as triplicate.

Assay [2] addresses T1, human PTH2R. Nature of the assay: Measurement of [Ca2+]i using the FLIPR, human PTH2R. The conditions noted are these: HEK293 cells that express human PTH2R; mean±S.D., n=4-5; read-out: logEC50, increase in [Ca2+]i (peak fluorescence) (converted).
Text: as §1
(§3) HEK293 cells were seeded into […] clear-base 96 well plates (BD Biocoat) coated with poly-D-lysine at a density of 100,000 cells per well in MEM, and cultured overnight.
(§4) Curve-fitting and parameter estimation were carried out using Graph Pad Prism, 3.00 (GraphPad Software Inc., California, U.S.A.).

Assay [3] addresses T2, rat PTH2R (Rattus norvegicus, UniProt P70555).
T2 construct: V5-His (appears only in the vector name); expressed in transfected cells
Nature of the assay: cAMP SPA assay for PTH2R activation, rat PTH2R. The settings on record: HEK293 cells stably expressing rat PTH2R; mean±S.D., n=3-7; read-out: logEC50, increase in cAMP (converted).
Text: as §1, §2

The target of assay [4] is T2, rat PTH2R. Nature of the assay: Measurement of [Ca2+]i using the FLIPR, rat PTH2R. The conditions noted are these: HEK293 cells that express rat PTH2R; mean±S.D., n=4-5; read-out: logEC50, increase in [Ca2+]i (peak fluorescence) (converted).
Text: as §1, §3, §4

Turning to `CSCC[C@H](NC(=O)[C@H](Cc1ccc(O)cc1)NC(=O)[C@H](CO)NC(=O)[C@H](CC(=O)O)NC(=O)[C@H](CC(C)C)NC(=O)[C@H](Cc1c[nH]c2ccccc12)NC(=O)[C@H](CCCNC(=N)N)NC(=O)[C@H](CCCNC(=N)N)NC(=O)[C@H](CCCNC(=N)N)NC(=O)[C@H](CCC(=O)O)NC(=O)[C@H](CC(C)C)NC(=O)[C@H](C)NC(=O)[C@H](C)NC(=O)[C@H](CC(C)C)NC(=O)[C@H](CC(C)C)NC(=O)[C@H](CCCNC(=N)N)NC(=O)[C@H](C)NC(=O)[C@H](CCCNC(=N)N)NC(=O)[C@H](CCC(=O)O)NC(=O)[C@H](CCCNC(=N)N)NC(=O)[C@H](Cc1ccccc1)NC(=O)[C@H](C)NC(=O)[C@H](C)NC(=O)[C@H](CC(=O)O)NC(=O)[C@H](CC(=O)O)NC(=O)[C@H](C)NC(=O)[C@H](CC(C)C)NC(=O)[C@H](C)NC(=O)[C@H](CC(C)C)NC(=O)[C@@H](N)CO)C(=O)N[C@@H](CCC(N)=O)C(=O)N[C@@H](CCCCN)C(=O)N[C@@H](CC(C)C)C(=O)N[C@@H](CC(C)C)C(=O)N[C@@H](CC(C)C)C(=O)N[C@@H](CC(C)C)C(=O)N[C@@H](CC(=O)O)C(=O)N[C@@H](C)C(=O)N1CCC[C@H]1C(=O)O` [Mouse TIP39, mouse tuberoinfundibular peptide of 39 residues], the EC50 is 0.2 nM in assay [1], 15.8 nM in assay [2], 0.126 nM in assay [3] and 50.1 nM in assay [4].
